Test system: fentanyl-induced hyperlocomotion
Assay: Lower doses of P6AS, naloxone and TetM1 as countermeasures to fentanyl-induced hyperlocomotion, Experiment #2
Settings: 15 minute reversal; fentanyl 0.1 mg/kg; P6AS 15 and 5 mg/kg, TetM1 11.81 mg/kg, Naloxone 1 mg/kg

For `C=CCN1CC[C@]23c4c5ccc(O)c4O[C@H]2C(=O)CC[C@@]3(O)[C@H]1C5`, which “comparison of reversal between countermeasures (locomotion counts)” value is on record?
The value was “no statistically significant differences”.
